Marks after values point to notes of the source that are not given here.
Target: CYP3A4 (Homo sapiens, UniProt P08684)
Test: Midazolam 1'-hydroxylation
Assay type: in vitro ADME
Settings: for % inhibition (10 µM) of CYP3A4: average of triplicates ± S.D.; for IC50: read-out: IC50 CYP3A4

Sequences of proteins named here, by UniProt entry; tags and fusion partners are left off.
UniProt P08684, whole entry: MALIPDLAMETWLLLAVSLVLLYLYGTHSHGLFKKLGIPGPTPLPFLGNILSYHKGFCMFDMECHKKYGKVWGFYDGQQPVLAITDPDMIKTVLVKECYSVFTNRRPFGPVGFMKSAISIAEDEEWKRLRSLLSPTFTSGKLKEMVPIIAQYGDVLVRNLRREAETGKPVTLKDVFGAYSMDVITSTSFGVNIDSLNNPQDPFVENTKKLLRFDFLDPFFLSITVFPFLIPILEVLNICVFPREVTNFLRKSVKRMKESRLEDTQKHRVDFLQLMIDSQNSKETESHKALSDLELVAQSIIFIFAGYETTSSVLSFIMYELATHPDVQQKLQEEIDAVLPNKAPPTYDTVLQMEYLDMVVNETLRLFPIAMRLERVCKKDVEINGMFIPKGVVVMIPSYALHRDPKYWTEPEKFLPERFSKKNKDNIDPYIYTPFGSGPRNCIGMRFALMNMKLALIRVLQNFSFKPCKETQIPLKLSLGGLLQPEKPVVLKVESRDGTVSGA

Substance | % inhibition (10 µM) of CYP3A4 | IC50 [nM]
23-O-acetylshengmanol-3-α-L-arabinopyranoside (23R) [Compound 2] | 81.6±0.9 ^b % | 2300 ± 200
23-O-acetylshengmanol-3-β-D-xylopyranoside [Compound 12] | 80.7±0.6% | 2700 ± 200
Cimicifugoside M [Compound 18] | 65.8±0.5% | 4300 ± 300

Source: article PMC3565011 (Xenobiotica; the fate of foreign compounds in biological …, 2011)
